Measurements taken from paper PMC10959724 (2024).

B1: wildtype TBK1 (TANK-binding kinase 1), mCitrine-Protein A fusion [not stated] / optineurin, NanoLuc-tagged [not stated] (parent complex)
chain 1: MQSTSNHLWLLSDILGQGATANVFRGRHKKTGDLFAIKVFNNISFLRPVDVQMREFEVLKKLNHKNIVKLFAIEEETTTRHKVLIMEFCPCGSLYTVLEEPSNAYGLPESEFLIVLRDVVGGMNHLRENGIVHRDIKPGNIMRVIGEDGQSVYKLTDFGAARELEDDEQFVSLYGTEEYLHPDMYERAVLRKDHQKKYGATVDLWSIGVTFYHAATGSLPFRPFEGPRRNKEVMYKIITGKPSGAISGVQKAENGPIDWSGDMPVSCSLSRGLQVLLTPVLANILEADQEKCWGFDQFFAETSDILHRMVIHVFSLQQMTAHKIYIHSYNTATIFHELVYKQTKIISSNQELIYEGRRLVLEPGRLAQHFPKTTEENPIFVVSREPLNTIGLIYEKISLPKVHPRYDLDGDASMAKAITGVVCYACRIASTLLLYQELMRKGIRWLIELIKDDYNETVHKKTEVVITLDFCIRNIEKTVKVYEKLMKINLEAAELGEISDIHTKLLRLSSSQGTIETSLQDIDSRLSPGGSLADAWAHQEGTHPKDRNVEKLQVLLNCMTEIYYQFKKDKAERRLAYNEEQIHKFDKQKLYYHATKAMTHFTDECVKKYEAFLNKSEEWIRKMLHLRKQLLSLTNQCFDIEEEVSKYQEYTNELQETLPQKMFTASSGIKHTMTPIYPSSNTLVEMTLGMKKLKEEMEGVVKELAENNHILERFGSLTMDGGLRNVDCL
chain 2: MSHQPLSCLTEKEDSPSESTGNGPPHLAHPNLDTFTPEELLQQMKELLTENHQLKEAMKLNNQAMKGRFEELSAWTEKQKEERQFFEIQSKEAKERLMALSHENEKLKEELGKLKGKSERSSEDPTDDSRLPRAEAEQEKDQLRTQVVRLQAEKADLLGIVSELQLKLNSSGSSEDSFVEIRMAEGEAEGSVKEIKHSPGPTRTVSTGTALSKYRSRSADGAKNYFEHEELTVSQLLLCLREGNQKVERLEVALKEAKERVSDFEKKTSNRSEIETQTEGSTEKENDEEKGPETVGSEVEALNLQVTSLFKELQEAHTKLSEAELMKKRLQEKCQALERKNSAIPSELNEKQELVYTNKKLELQVESMLSEIKMEQAKTEDEKSKLTVLQMTHNKLLQEHNNALKTIEELTRKESEKVDRAVLKELSEKLELAEKALASKQLQMDEMKQTIAKQEEDLETMTILRAQMEVYCSDFHAERAAREKIHEEKEQLALQLAVLLKENDAFEDGGRQSLMEMQSRHGARTSDSDQQAYLVQRGAEDRDWRQQRNIPIHSCPKCGEVLPDIDTLQIHVMDCII

Variants of: B1
Assay: LuTHy-BRET; live HEK293 cells; parent: 1; read off a plot

Variant	ratio to parent
chain 1 E696K	~0.06
chain 1 R47H	~0.99

Variants of: B1
Assay: LuTHy-BRET donor saturation assay; live HEK293 cells; read at Acceptor:Donor = 4 (highest point of the curve); parent: 0.066; read off a plot

Variant	response
chain 1 E696K	~0.012
